Where “and” joins values, the source holds several entries; their conditions need not be identical. Equal values may be shown once.
Biological target: S. aureus alpha-toxin (Staphylococcus aureus, UniProt P09616)

Protein sequences, listed by entry. Tags and fused reporters are not part of them. Residues count along the entry.
UniProt P09616, 27-319 limits assumed: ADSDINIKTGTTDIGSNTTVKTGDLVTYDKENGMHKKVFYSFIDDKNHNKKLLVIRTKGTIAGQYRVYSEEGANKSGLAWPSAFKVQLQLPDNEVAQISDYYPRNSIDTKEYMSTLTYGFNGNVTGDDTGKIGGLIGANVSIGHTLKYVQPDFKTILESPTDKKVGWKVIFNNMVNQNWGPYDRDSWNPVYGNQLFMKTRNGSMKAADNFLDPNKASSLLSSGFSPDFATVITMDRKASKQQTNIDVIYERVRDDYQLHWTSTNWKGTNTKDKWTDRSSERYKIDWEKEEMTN

Binder | Kd
alpha-toxin antibody DF1 (IgG), germlined version of DF1.1 (antibody, V domains shown) VH: QVQLVQSGAEVKKPGSSVKVSCKASGGTFNNVAINWVRQAPGQGLEWMGGIIPGLDTPNYAQKFQGRVTITADESTSTAYMELSSLRSEDTAVYYCAREMEVSGRWRPTEAFEIWGQGTLVTVSS VL: EIVLTQSPGTLSLSPGERATLSCRASQTISNNFVAWYQQKPGQAPRLLIYGASTRATGIPDRFSGSGSGTDFTLTISRLEPEDFAVYYCQQYGSSPYTFGQGTKLEIKR | 0.58 nM and 0.59 nM and 0.76 nM
alpha-toxin antibody DF2 (IgG) (antibody, V domains shown) VH: QVQLVQSGAEVKKPGSSVKVSCKASGGTFNNVAINWVRQAPGQGLEWMGGIIPGLDTPNYAQKFQGRVTITADESTSTAYMELSSLRSEDTAVYYCAREVEVSGRWRPTEAFEIWGQGTLVTVSS VL: EIVLTQSPGTLSLSPGERATLSCRASQTISNNFVAWYQQKPGQAPRLLIYGASTRATGIPDRFSGSGSGTDFTLTISRLEPEDFAVYYCQQYGSSPYTFGQGTKLEIKR | 0.15 nM and 0.21 nM

Reference: patent US20130164308A1 (RINAT NEUROSCIENCE, published 2013)
